Assay results as given in patent US20050175597A1 (priority 2002, published 2005).

System: B. subtilis (ATCC 6633)

Compound: CC[C@H]1OC(=O)[C@H](C)[C@@H](O[C@H]2C[C@@](C)(OC)[C@@H](O)[C@H](C)O2)[C@H](C)[C@@H](O[C@@H]2O[C@H](C)C[C@H](N(C)C)[C@H]2O)[C@](C)(O)C[C@@H](C)C(=O)[C@H](C)[C@@H](O)[C@]1(C)O [Erythromycin + H2O, Erythromycin]
- reduction in erythromycin activity: 92%
